Each block holds one binder with its values, some of them ahead of it.
Assays:
[1] = target: T1, human TREM1 (human, UniProt Q9NP99 21-234); experiment: cell binding
[2] = target: T1, human TREM1; experiment: flow cytometry cell binding

The chains behind the UniProt entries cited, without tags or fusion partners. Residues count along the entry.
UniProt Q9NP99, 21-234: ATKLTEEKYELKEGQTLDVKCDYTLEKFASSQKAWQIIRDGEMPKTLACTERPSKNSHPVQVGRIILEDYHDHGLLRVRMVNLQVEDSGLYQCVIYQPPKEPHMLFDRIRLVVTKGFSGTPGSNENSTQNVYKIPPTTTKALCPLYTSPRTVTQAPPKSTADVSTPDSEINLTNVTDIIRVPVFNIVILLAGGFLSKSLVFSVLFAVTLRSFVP

EC50 [1]: 400 pM | EC50 [2]: 400 pM
B1: Pi-8421 (antibody, V domains shown)
VH: EVQLVESGGGLVQPGGSLRLSCAASGFDISYSSIHWVRQAPGKGLEWVASIYSSYGSTYYADSVKGRFTISADTSKNTAYLQMNSLRAEDTAVYYCARYYYSHAGWYVSGYWPAIDYWGQGTLVTVSS
VL: DIQMTQSPSSLSASVGDRVTITCRASQSVSSAVAWYQQKPGKAPKLLIYSASSLYSGVPSRFSGSRSGTDFTLTISSLQPEDFATYYCQQSSYSLITFGQGTKVEIK

EC50 [1]: 60 pM | EC50 [2]: 60 pM
B2: mAb0170 (antibody, V domains shown)
VH: EVQLVESGGGLVQPGGSLKLSCAASGFTFSTYAMHWVRQASGKGLEWVGRIRTKSSNYATYYAASVKGRFTISRDDSKNTAYLQMNSLKTEDTAVYYCTRDMGIRRQFAYWGQGTLVTVSS
VL: DIVLTQSPDSLAVSLGERATINCRASESVDTFDYSFLHWYQQKPGQPPKLLIYRASNLESGVPDRFSGSGSGTDFTLTISSLQAEDVAVYYCQQSNEDPYTFGQGTKLEIK
